Results published in article PMC6344527, “Toxicity and possible mechanisms of action of honokiol from Magnolia denudata seeds against four mosquito species” (Scientific Reports, 2019).

Legend:
[1] = test system: third-instar larvae of insecticide-susceptible Aedes aegypti; experiment: contact mortality bioassay, 24 h exposure; settings: Table 7, structure-activity series
[2] = test system: third-instar larvae of insecticide-susceptible Culex pipiens pallens; experiment: contact mortality bioassay, 24 h exposure; settings: Table 6, structure-activity series

isoeugenol
LC50 (mg/L) (95% CI) [1]: 81.26 (71.39–88.47) mg/L
LC50 (mg/L) (95% CI) [2]: 79.72 (68.33–92.65) mg/L
